Our source for the storage modulus and critical strain values is US10093674B2, “Supramolecular nanofibers and hydrogels based on nucleic acids functionalized with nucleobases” (Brandeis University, priority 2011, dated 2018).

For one data set the following is noted: hydrogel, 2.0 wt %.
Regarding Adenine-Phe-Phe [Compound 1A], the storage modulus was 8090 Pa. Cytosine-Phe-Phe [Compound 1C] registered a storage modulus of 26 Pa. Substance Guanine-Phe-Phe [Compound 1G] showed a storage modulus of 12613 Pa.

Substance Thymine-Phe-Phe [Compound 1T] showed a storage modulus of 6346 Pa.

For another data set the following is noted: hydrogel, 3.0 wt %.
Adenine-Phe-Phe-glucosamine [2A′] showed a critical strain of 0.39% and a storage modulus of 0.37 KPa.

Turning to Adenine-Phe-glucosamine [1A′], the critical strain is recorded as 0.23% and the storage modulus is 6 KPa. Turning to Cytosine-Phe-Phe-Glucosamine [2C′], the critical strain was found to be 0.27% and the storage modulus amounted to 220 KPa. Take Guanine-Phe-Phe-glucosamine [2G′]: the critical strain was determined as 0.18% and the storage modulus is given as 101 KPa. Consider Guanine-Phe-glucosamine [1G′], for which the critical strain was 0.28% and the storage modulus was 139 KPa. The like results for Thymine-Phe-Phe-glucosamine [2T′] were, in that order, 0.31% and 32 KPa.

The substance Thymine-Phe-glucosamine [1T′] registered a critical strain of 0.5% and a storage modulus of 34 KPa.
